Yeast mating assay 2: variants of the scFv Ab-95

Data: MIT Lincoln Laboratory AlphaSeq set, Engelhart et al. 2022, doi:10.1038/s41597-022-01779-4, as distributed in FLAb.

The target is the same throughout: PDVDLGDISGINAS, from the HR2 region of SARS-CoV-2 spike.

The variants keep the heavy chain, the linker and the frameworks of Ab-95 (scFv order VH, the linker GGGGSGGGGSGGGGS, VL).
VH: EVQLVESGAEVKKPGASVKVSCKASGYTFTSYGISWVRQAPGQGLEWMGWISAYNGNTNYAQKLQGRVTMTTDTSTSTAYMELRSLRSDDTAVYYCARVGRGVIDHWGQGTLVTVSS
VL: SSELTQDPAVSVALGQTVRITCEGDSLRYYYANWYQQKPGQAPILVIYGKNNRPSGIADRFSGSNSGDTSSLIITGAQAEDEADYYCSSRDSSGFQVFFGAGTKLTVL

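Phage display of a naive human antibody library on the peptide gave the parent. The library (AAYL52) carries one to three amino acid substitutions per variant, with no insertions or deletions. AlphaSeq pools MATa yeast showing the antibodies with MATalpha yeast showing the peptide. Binding brings cells together so that they mate, and sequencing counts the barcode pairs among the diploids. Each replicate has its own calibration line, from reference interactions of the BCL2 family. The assay was run in three technical replicates.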

Changes read parent residue, position, new residue, counted from the first residue of the VL shown.
Affinities are written as log10 Kd with Kd in nM; a lower number is a better binder.
"nd" means that the variant was in the library but no mating with the target was seen in that replicate; the authors take this as a sign of poor binding, and no number exists.
Empty control strains, which show no peptide, gave a signal in 28% of pairings with library AAYL52; the median was 3.91 and 95% of these signals were weaker than 2.90. No background was subtracted. For each scFv, signals with the empty controls are counted beside the result, with their mean in brackets.
In this assay the parent's reference entry averaged 2.31; its copy inside this library read 2.25.

| changes | log10 Kd (nM) by replicate | empty controls |
|---|---|---|
| Y30F R90I S92P | 3.12 nd 2.01 | 4 of 9 (3.34) |
| S26G S89Y | nd 3.88 3.79 | 1 of 9 (3.32) |
| N51R S92A S93T | 3.17 3.64 nd | 1 of 9 (3.35) |
| L27P Y30C Q96F | nd nd nd | 1 of 9 (3.06) |
| N52L R90D D91N | nd 3.42 nd | 1 of 9 (3.69) |
| K50I N51S | 4.47 3.50 3.00 | 4 of 9 (4.07) |
| S26T Y30W R53S | 4.31 nd 3.81 | 2 of 9 (3.74) |
| S88G Q96V V97P | 2.18 1.91 1.36 | 6 of 9 (3.93) |
| D25R K50G F95K | 3.64 2.63 2.94 | 0 of 9 |
| Y29L R53D P54I | nd 4.99 nd | 1 of 9 (4.37) |
| S26P R53V R90P | 4.00 5.54 4.46 | 2 of 9 (4.33) |
| N51I P54G D91C | 3.75 4.38 4.42 | 4 of 9 (4.29) |
| G49W R53N V97D | 3.98 4.01 nd | 2 of 9 (4.19) |
| N33P D91M V97K | nd nd nd | 1 of 9 (4.09) |
| R28F Y30S S89N | 1.68 1.53 1.10 | 0 of 9 |
| L27K R90A | 4.01 nd nd | 1 of 9 (4.00) |
| D25G Y30L K50W | 3.30 2.20 2.75 | 5 of 9 (3.92) |
| E23W Y30A R90G | 1.68 1.76 1.57 | 1 of 9 (4.20) |
| S26M P54R | nd 3.10 nd | 1 of 9 (2.59) |
| E23G Y30F Q96V | 2.35 2.96 2.80 | 6 of 9 (3.94) |
| E23N S55M Q96K | 2.60 2.42 3.07 | 0 of 9 |
| N33M G49D P54E | nd nd nd | 2 of 9 (3.89) |
| G49T N51F S55M | nd nd nd | 3 of 9 (4.17) |
| E23K D25W G49D | 2.77 2.71 2.66 | 3 of 9 (3.90) |
| L27N Y30R A32Q | nd 4.36 3.11 | 1 of 9 (4.56) |
| K50T N52P S55H | 4.49 nd 2.66 | 4 of 9 (4.11) |
| Y29F N33H K50V | 3.61 nd nd | 4 of 9 (3.68) |
| Y31M Q96H F98D | 2.93 2.33 2.05 | 3 of 9 (3.90) |
| Y29A N51W S55Q | 3.45 nd 3.39 | 3 of 9 (3.97) |
| N33R D91P S93T | nd nd nd | 3 of 9 (4.65) |
| R28W Y31A G49M | 5.09 nd nd | 1 of 9 (3.44) |
| Y30N F95P Q96L | 0.64 0.62 0.11 | 1 of 9 (4.84) |
| Y31F R53C Q96T | nd 3.62 nd | 2 of 9 (3.32) |
| Y31D P54K F98Q | 2.85 3.10 3.04 | 1 of 9 (2.98) |
| R53W R90Y F95H | 4.33 3.43 3.86 | 2 of 9 (4.07) |
| R28Q G94N Q96E | nd nd nd | 0 of 9 |
| G94T | 2.43 2.91 2.74 | 5 of 9 (3.39) |
| L27E S92K F95C | 3.87 nd nd | 4 of 9 (3.96) |
| E23D S88P F98M | nd nd nd | 0 of 9 |
| Y31W N51Y N52A | 3.04 3.94 nd | 6 of 9 (3.91) |
| G24Q Y29V Y30N | 2.76 2.53 2.64 | 2 of 9 (3.44) |
| Y31S N33W V97D | 3.92 nd nd | 1 of 9 (4.74) |
| L27N G49K K50I | 4.17 nd nd | 1 of 9 (3.80) |
| L27I S88I F98G | nd 4.35 nd | 1 of 9 (3.94) |
| S26L Y31M R90F | nd 4.97 nd | 2 of 9 (3.75) |
| D25H L27G P54Q | 3.19 3.20 2.69 | 5 of 9 (4.30) |
| Y30F G49S F95P | 3.90 5.01 nd | 3 of 9 (4.40) |
| Y29Q S92T Q96M | 3.82 2.70 2.53 | 2 of 9 (3.89) |
| Y29M Y30E S88G | 2.16 2.10 2.13 | 1 of 9 (3.94) |
| G24V A32F S55F | nd 4.37 3.84 | 2 of 9 (3.11) |

From the list, the first 7 with no signal in any replicate:

| changes | log10 Kd (nM) by replicate | empty controls |
|---|---|---|
| L27P Y30C Q96F | nd nd nd | 1 of 9 (3.06) |
| N33P D91M V97K | nd nd nd | 1 of 9 (4.09) |
| N33M G49D P54E | nd nd nd | 2 of 9 (3.89) |
| G49T N51F S55M | nd nd nd | 3 of 9 (4.17) |
| N33R D91P S93T | nd nd nd | 3 of 9 (4.65) |
| R28Q G94N Q96E | nd nd nd | 0 of 9 |
| E23D S88P F98M | nd nd nd | 0 of 9 |